The chains behind the UniProt entries cited, without tags or fusion partners. Residues count along the entry.
UniProt Q5VWK5, 24-629 limits assumed: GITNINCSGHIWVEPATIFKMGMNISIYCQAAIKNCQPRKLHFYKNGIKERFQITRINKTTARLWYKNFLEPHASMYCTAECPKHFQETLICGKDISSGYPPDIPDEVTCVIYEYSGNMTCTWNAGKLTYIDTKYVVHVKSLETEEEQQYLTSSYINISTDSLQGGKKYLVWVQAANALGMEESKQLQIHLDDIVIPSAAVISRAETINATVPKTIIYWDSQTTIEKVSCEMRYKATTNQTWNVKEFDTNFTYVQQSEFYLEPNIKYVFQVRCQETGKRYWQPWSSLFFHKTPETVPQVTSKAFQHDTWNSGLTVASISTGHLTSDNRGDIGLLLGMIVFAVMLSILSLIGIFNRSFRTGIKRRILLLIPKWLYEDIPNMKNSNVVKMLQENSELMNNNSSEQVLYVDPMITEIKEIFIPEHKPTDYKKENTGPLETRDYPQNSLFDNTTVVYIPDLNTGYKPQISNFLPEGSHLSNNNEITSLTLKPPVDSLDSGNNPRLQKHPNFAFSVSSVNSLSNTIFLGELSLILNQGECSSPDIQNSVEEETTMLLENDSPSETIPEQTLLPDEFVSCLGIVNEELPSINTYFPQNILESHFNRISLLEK

In patent publication US11845808B2, “Peptide inhibitors of interleukin-23 receptor and their use to treat inflammatory diseases” (Janssen Biotech, Inc., priority 2020, dated 2023):

How the values were obtained:
Stability in rat plasma = type: in vitro ADME; conditions: SD rat plasma, 37° C., 20 μM
[1] = target: IL-23 stimulated phosphorylated STAT3 in PBMCs (Homo sapiens, UniProt Q5VWK5); test: PBMC pSTAT3 assay; type: cell-based; conditions: PBMCs from healthy donors, IL-23 5 ng/mL, 30 minutes
[2] = Stability in cynomolgus monkey fecal homogenate; type: in vitro ADME; conditions: 20% cynomolgus monkey fecal homogenate, 37° C., 20 μM
[3] = Stability in simulated intestinal fluid (SIF); type: in vitro ADME; conditions: 100 fold dilution of standard SIF concentration, 37° C., 20 μM
Method in brief: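 Peptides at 20 μM final were incubated at 37 °C in SIF (potassium phosphate with pancreatin, pH 6.8), and reactions were quenched with acetonitrile/1% formic acid at time points from 0 min to 24 h. Percent remaining relative to time 0 was determined by LC-MS/MS against an internal standard, and half-life came from a first-order decay fit.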

[4] = target: IL-23 induced IFNγ in natural killer (NK) cells (Homo sapiens, UniProt Q5VWK5); test: NK cell based assay (IL-23/IL-18 induced IFNγ); conditions: IL-23 at EC50 to EC75 and IL-18 10 ng/mL, IFNγ in supernatant after 20 to 24 hours
Description: Example 3: NK Cell Based Assay

[5] = Stability in human fecal homogenate; type: in vitro ADME; conditions: 20% human fecal homogenate, 37° C., 20 μM
[6] = Stability in simulated gastric fluid (SGF); type: in vitro ADME; conditions: pepsin, pH=2, 37° C., 20 μM peptide
Procedure: Studies were carried out in simulated intestinal fluid (SIF) and simulated gastric fluid (SGF) to evaluate gastric stability of the peptide inhibitors of the present invention. In addition, studies were carried out to assess redox stability of the peptide inhibitors of the present invention.
SGF was prepared by adding 20 mg NaCl, 32 mg porcine pepsin (MP Biochemicals, catalog 02102599), and 700 HCl to 10 ml water (final pH=2). Aliquots of SGF (0.5 ml each) were pre-warmed at 37° C. To start the reaction, 1 μl of peptide stock solution (10 mM in DMSO) was added to 0.5 ml SGF and thoroughly mixed such that the final peptide concentration was 20 μM. The reactions were incubated at 37° C. with gentle shaking. At each time point (0, 15, 30, 60 min) 50 μl aliquots were removed and added to 200 ul acetonitrile containing 0.1% formic acid to quench the reaction. Samples are stored at 4° C. until the end of the experiment and centrifuged at 10,000 rpm for 5 minutes. Aliquots of the supernatant were removed, diluted 1:1 into distilled water containing internal standard, and analyzed by LCMS/MS. Percent remaining at each timepoint was calculated based on the peak area response ratio of test to compound to internal standard. Time 0 was set to 100%, and all later timepoints were calculated relative to time 0. Half-lives were calculated by fitting to a first-order exponential decay equation using GraphPad.

Ac-[Pen]-N-T-[W(7-Ph)]-[Lys(Ac)]-[Pen]-Phe[4-(2-aminoethoxy)]-[2-Nal]-[THP]-E-N-H-[Sarc]-NH2 [Peptide 52]
t½: Rat Plasma EDTA (Stability in rat plasma): >24.0 h | IC50 [1]: 0.34 nM | t½: Monkey Feces anaerobic [2]: 19.5 h | SIF t½ [3]: >24.0 h | IC50 [4]: 0.46 nM | t½: Human Feces anaerobic [5]: >24.0 h | SGF t½ [6]: >24.0 h

Ac-[Pen]-N-T-[W(7-Ph)]-[Lys(Ac)]-[Pen]-Phe[4-(2-aminoethoxy)]-[2-Nal]-[a-MeLys]-[Lys(Ac)]-N-[3Pal]-[Sarc]-NH2 [Peptide 105]
t½: Rat Plasma EDTA (Stability in rat plasma): >24.0 h | IC50 [1]: 0.019 nM | t½: Monkey Feces anaerobic [2]: >24.0 h | SIF t½ [3]: >24.0 h | IC50 [4]: 0.0523 nM | t½: Human Feces anaerobic [5]: >24.0 h | SGF t½ [6]: >24.0 h

Ac-[Pen]-N-T-[W(7-Me)]-[Lys(Ac)]-[Pen]-Phe[4-(2-aminoethoxy)]-[2-Nal]-[a-MeLys]-[Lys(Ac)]-N-H-[Sarc]-NH2 [Peptide 23]
t½: Rat Plasma EDTA (Stability in rat plasma): >24.0 h | IC50 [1]: 0.78 nM | t½: Monkey Feces anaerobic [2]: 15.8 h | SIF t½ [3]: >24.0 h | IC50 [4]: 0.706 nM | t½: Human Feces anaerobic [5]: >24.0 h | SGF t½ [6]: >24.0 h

Ac-[Pen]-N-T-[W(7-Ph)]-[Lys(Ac)]-[Pen]-Phe[4-(2-aminoethoxy)]-[3Quin]-[a-MeLys]-[Lys(Ac)]-N-H-[Sarc]-NH2 [Peptide 16]
t½: Rat Plasma EDTA (Stability in rat plasma): >24.0 h | IC50 [1]: 1.9 nM | t½: Monkey Feces anaerobic [2]: 20.8 h | SIF t½ [3]: >24.0 h | IC50 [4]: 0.779 nM | t½: Human Feces anaerobic [5]: >24.0 h | SGF t½ [6]: >24.0 h

Ac-[Pen]-N-T-[W(7-Ph)]-[Lys(Ac)]-[Pen]-Phe[4-(2-aminoethoxy)]-[3Quin]-[THP]-E-N-H-[Sarc]-NH2 [Peptide 15]
t½: Rat Plasma EDTA (Stability in rat plasma): >24.0 h | IC50 [1]: 2.2 nM | t½: Monkey Feces anaerobic [2]: >24.0 h | SIF t½ [3]: >24.0 h | IC50 [4]: 0.963 nM | t½: Human Feces anaerobic [5]: >24.0 h | SGF t½ [6]: >24.0 h

Ac-[Pen]-N-T-[W(7-Me)]-[Lys(Ac)]-[Pen]-Phe[4-(2-aminoethoxy)]-[3Quin]-[THP]-E-N-H-[Sarc]-NH2 [Peptide 53]
t½: Rat Plasma EDTA (Stability in rat plasma): >24.0 h | IC50 [1]: 1.8 nM | t½: Monkey Feces anaerobic [2]: >24.0 h | SIF t½ [3]: 21.6 h | IC50 [4]: 0.812 nM | t½: Human Feces anaerobic [5]: 17.7 h | SGF t½ [6]: >24.0 h
